According to patent US20070265306A1, “4-[(3-fluorophenoxy)phenylmethyl]piperidine methanesulfonate: uses, process of synthesis and pharmaceutical compositions” (priority 2006, published 2007):

Test: solubility in water
Format: physicochemical

(S)-4-[(3-fluorophenoxy)phenylmethyl]piperidine dibenzoyl-L-tartaric acid salt
solubility in water: insoluble in water
